Values of other authors in PMC4690140.

Tests used:
NaV1.3 = NaV1.3 (UniProt P08104)
NaV1.4 = NaV1.4 (UniProt P15390)

Substance	Kd (NaV1.3)	Kd (NaV1.4)
mu-conotoxin BuIIIB (from UniProt C1J5M6)	200 nM	–
delta-conotoxin SVIE (from UniProt Q9XZK5)	–	500 nM
